Positions count from the first letter of the chain named.
Assays:
Test in all cases: biochemical
[1] = molecular target: T1, BRPF1 bromodomain R91A mutant (Homo sapiens, UniProt P55201, R716A); format: binding
T1 sequence (P55201 629-742 R716A): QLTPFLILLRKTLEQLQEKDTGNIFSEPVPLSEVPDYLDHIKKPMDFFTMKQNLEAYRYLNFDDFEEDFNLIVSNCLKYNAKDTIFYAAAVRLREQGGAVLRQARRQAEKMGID

[2] = molecular target: T2, BRPF1 bromodomain T24A mutant (Homo sapiens, UniProt P55201, T649A); format: binding
T2 sequence (P55201 629-742 T649A): T1 sequence (P55201 629-742 R716A) with T21A, A88R

[3] = molecular target: BRPF1 bromodomain N26A mutant (Homo sapiens, UniProt P55201, N651A)
[4] = molecular target: T3, BRPF1 bromodomain K81A mutant (Homo sapiens, UniProt P55201, K706A); format: binding
T3 sequence (P55201 629-742 K706A): T1 sequence (P55201 629-742 R716A) with K78A, A88R

BRPF1 bromodomain = molecular target: T4, BRPF1 bromodomain (Homo sapiens, UniProt P55201); format: binding; conditions: SD
T4 sequence (P55201 629-742): T1 sequence (P55201 629-742 R716A) with A88R

[5] = molecular target: T5, BRPF1 bromodomain E36A mutant (Homo sapiens, UniProt P55201, E661A); format: binding
T5 sequence (P55201 629-742 E661A): T1 sequence (P55201 629-742 R716A) with E33A, A88R

[6] = molecular target: T6, BRPF1 bromodomain E30A mutant (Homo sapiens, UniProt P55201, E655A); format: binding
T6 sequence (P55201 629-742 E655A): T1 sequence (P55201 629-742 R716A) with E27A, A88R

SMILES | Kd [1] | Kd [2] | Kd [3] | Kd [4] | Kd (BRPF1 bromodomain) | Kd [5] | Kd [6]
CC(=O)NCCCC[C@H](NC(=O)CNC(=O)[C@H](CCCNC(=N)N)NC(=O)CNC(=O)[C@@H](N)CO)C(=O)NCC(=O)NCC(=O)N[C@@H](CCCCN)C(=O)NCC(=O)N[C@@H](CC(C)C)C(=O)O [H4K5ac (1–10)] | 37.3 µM | 28.9 µM | 44.1 µM | 59.9 µM | 57.6 ± 6 µM | 51.4 µM | 79.4 µM
CC(=O)NCCCC[C@H](NC(=O)CNC(=O)CNC(=O)[C@H](CCCCNC(C)=O)NC(=O)CNC(=O)[C@H](CCCNC(=N)N)NC(=O)CNC(=O)[C@@H](N)CO)C(=O)NCC(=O)N[C@@H](CC(C)C)C(=O)O [H4K5acK8ac (1–10)] | 21.5 µM | 99.4 µM | 34.5 µM | 45.7 µM | 27.7 ± 5.2 µM | 43.1 µM | 27.2 µM
CC(=O)NCCCC[C@H](NC(=O)CNC(=O)CNC(=O)[C@H](CCCCN)NC(=O)CNC(=O)[C@H](CCCNC(=N)N)NC(=O)CNC(=O)[C@@H](N)CO)C(=O)NCC(=O)N[C@@H](CC(C)C)C(=O)O [H4K8ac (1–10)] |  |  |  |  | 189 ± 36.6 µM |  | 
CC(=O)NCCCC[C@H](NC(=O)CNC(=O)[C@@H](N)CC(C)C)C(=O)NCC(=O)NCC(=O)N[C@@H](C)C(=O)N[C@@H](CCCCNC(C)=O)C(=O)N[C@@H](CCCNC(=N)N)C(=O)N[C@@H](Cc1cnc[nH]1)C(=O)N[C@@H](CCCNC(=N)N)C(=O)N[C@@H](CCCCN)C(=O)O [H4K12acK16ac (10–20)] |  |  |  |  | 644 ± 102 µM |  | 
